The values below come from patent US20220324865A1 (Bayer Aktiengesellschaft, priority 2018, published 2022).

Amino acid sequences for entries named in this document (tags omitted).
UniProt P43115, whole entry: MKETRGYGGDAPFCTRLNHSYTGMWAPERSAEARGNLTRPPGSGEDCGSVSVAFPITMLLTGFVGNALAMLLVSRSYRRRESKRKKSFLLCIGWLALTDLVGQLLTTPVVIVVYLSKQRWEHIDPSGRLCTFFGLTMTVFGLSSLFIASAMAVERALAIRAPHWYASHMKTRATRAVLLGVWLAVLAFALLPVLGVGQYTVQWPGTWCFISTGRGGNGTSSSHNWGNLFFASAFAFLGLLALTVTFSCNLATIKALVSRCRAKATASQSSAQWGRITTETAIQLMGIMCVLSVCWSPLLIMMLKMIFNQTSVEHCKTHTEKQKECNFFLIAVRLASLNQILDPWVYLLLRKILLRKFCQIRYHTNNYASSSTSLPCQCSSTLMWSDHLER

By IC50 is commonly meant the midpoint of a concentration-inhibition curve.

The target of one assay is human EP3 receptor (Homo sapiens, UniProt P43115). The experiment in a line: Cellular in vitro assay for determining EP3 receptor activity (human EP3 cell line, sulprostone-stimulated calcium luminescence). The following applies: read-out: EP3 CHO mtCLY ANTAG IC50; CHO cells expressing human EP3 and mitochondrial Clytin; antagonist mode, sulprostone at EC50. As to the method: B-1. Cellular In Vitro Assay for Determining EP3 Receptor Activity
The identification of antagonists of the EP3 receptor from humans and rats as well as the quantification of the activity of the compounds of the invention was carried out using recombinant cell lines. These cell lines originally derive from a hamsters ovary epithelial cell (Chinese Hamster Ovary, CHO K1, ATCC: American Type Culture Collection, Manassas, Va. 20108, USA). The test cell lines constitutively express the human or rat EP3 receptors. The naturally Gαi-coupled human and rat EP3 receptors were stably co-transfected with Gα16 into cells that are also stably transfected with a mitochondrial form of the calcium-sensitive photoproteins Clytin (human EP3) or Photina (rat EP3), which, after reconstitution with the cofactor coelenterazine, emit light when there are increases in free calcium concentrations (Nature 1992, 358, 325-327; Gene 1995, 153 (2), 273-274). The resulting EP3 receptor cells react to stimulation of the recombinantly expressed EP3 receptors by the agonist sulprostone with intracellular release of calcium ions, which can be quantified by the resulting photoprotein luminescence. Antagonists inhibit the receptor signaling, leading to reduced calcium release and luminescence. The bioluminescence of the cell lines is detected using a suitable luminometer (Trends Pharmacol. Sci. 1996, 17, 235-237).
Human and Rat EP3 Cell Lines:
On the day before the assay, the cells are plated out in culture medium (OptiMEM, 1% FCS, 2 mM glutamine, 10 mM HEPES, 5 μg/ml coelenterazine) in 384-well microtiter plates and kept in a cell incubator (96% humidity, 5% v/v CO2, 37° C.). On the day of the assay, test compounds in various concentrations are placed for 10 minutes in the wells of the microtiter plate before the agonist sulprostone at EC50 concentration is added. The resulting light signal is measured immediately in a luminometer. All concentrations are measured in quadruples.
For `Cc1ccc(-c2cn3nc(C(=O)N[C@@H](c4ccc(F)cc4)[C@H](O)C(F)(F)F)cc3c(=O)[nH]2)cc1F`, the IC50 was determined as 1.15 nM.
With `Cc1ccc(-c2cn3nc(C(=O)NC4(C(F)(F)F)COC4)c(C4CC4)c3c(=O)[nH]2)cc1F`, the IC50 stood at 1.6 nM.
Take `Cc1cc(-c2cn3nc(C(=O)N[C@@H](c4ccc(F)cc4)C(F)(F)CO)c(C4CC4(F)F)c3c(=O)[nH]2)ccc1Cl` (stereo partly shown): the IC50 was 1.1 nM.
For `Cc1cc(-c2cn3nc(C(=O)NC(c4ccc(F)cc4)C(F)(F)CO)c(C(F)(F)F)c3c(=O)[nH]2)ccc1Cl` (stereo not shown), the IC50 was 1.15 nM.
For `Cc1ccc(-c2cn3nc(C(=O)NC(CO)c4ccc(F)cc4)c(C4CC4)c3c(=O)[nH]2)cc1F` (racemic), the IC50 was 0.9 nM.
`Cc1ccc(-c2cn3nc(C(=O)NC[C@]4(C5CC5)NC(=O)NC4=O)c(C(F)(F)F)c3c(=O)[nH]2)cc1Cl`: the IC50 came out at 5.55 nM.
As for `Cc1ccc(-c2cn3nc(C(=O)N[C@@H](C)CO)c(C4CC4)c3c(=O)[nH]2)cc1Cl`, the IC50 came out at 1.75 nM.
Regarding `Cc1ccc(-c2cn3nc(C(=O)N[C@@H](c4ccc(F)cc4)[C@@H](O)C(F)(F)F)c(C4CC4)c3c(=O)[nH]2)cc1F`, the IC50 is 2.85 nM.
For `COC[C@@H](NC(=O)c1nn2cc(-c3ccc(C)c(Cl)c3)[nH]c(=O)c2c1C1CC1)c1ccccc1`, the IC50 was determined as 1.07 nM.
`Cc1ccc(-c2cn3nc(C(=O)N[C@H](CN4CCOCC4)c4ccc(F)cc4)c(C(F)(F)F)c3c(=O)[nH]2)cc1Cl`: the IC50 came out at 3.65 nM.
As for `Cc1ccc(-c2cn3nc(C(=O)NC(c4ccc(F)cc4)C4(O)CC4)c(C(F)(F)F)c3c(=O)[nH]2)cc1F` (racemic), the IC50 came to 2.08 nM.
As for `CCC1(NC(=O)c2cc3c(=O)[nH]c(-c4ccc5c(c4)OCCO5)cn3n2)CN(C(=O)OC(C)(C)C)C1`, the IC50 was 1.65 nM.
On to `COC[C@@H](NC(=O)c1nn2cc(-c3ccc(Cl)c(C)c3)[nH]c(=O)c2c1C1CC1)c1ccccc1`, for which the IC50 stood at 0.93 nM.
`O=C(NC(CN1CCOCC1)c1ccc(F)cc1)c1nn2cc(-c3ccc4ccccc4c3)[nH]c(=O)c2c1C(F)(F)F` (single isomer, unassigned) [6-505]: the IC50 is 1.03 nM.
As for `Cc1ccc(-c2cn3nc(C(=O)N[C@@H](c4ccc(F)cc4)[C@@H](O)C(F)(F)F)cc3c(=O)[nH]2)cc1F`, the IC50 turned out to be 0.74 nM.
Regarding `Cc1ccc(-c2cn3nc(C(=O)NC(C)c4ccccc4OC(F)F)cc3c(=O)[nH]2)cc1C(F)(F)F` (stereo not shown), the IC50 was found to be 3.4 nM.
As for `COc1ccc(C2(NC(=O)c3nn4cc(-c5ccc(C)c(Cl)c5)[nH]c(=O)c4c3C(F)(F)F)CN(C)C2)cc1`, the IC50 turned out to be 2.15 nM.
Still for that read-out and setting: the figure for `Cc1ccc(-c2cn3nc(C(=O)NC(CO)C4CC4)c(C4CC4)c3c(=O)[nH]2)cc1Cl` (single isomer, unassigned) [6-267] is 0.32 nM; for `Cc1ccc(-c2cn3nc(C(=O)N[C@@H](c4ccc(F)cc4)[C@H](O)C(F)(F)F)c(C(F)(F)F)c3c(=O)[nH]2)cc1Cl` it is 0.84 nM; for `Cc1ccc(-c2cn3nc(C(=O)NCC(O)C(F)F)c(C(F)(F)F)c3c(=O)[nH]2)cc1Cl` (single isomer, unassigned) [6-184] it is 3.65 nM.
Turning to `Cc1cc(-c2cn3nc(C(=O)NC(CO)C(F)(F)F)c(C4CC4)c3c(=O)[nH]2)ccc1Cl` (single isomer, unassigned) [6-306], the IC50 was 1.37 nM.
On the same count and under the same terms, the same measure for `Cc1ccc(-c2cn3nc(C(=O)N[C@@H](c4ccc(F)cc4)[C@@H](O)C(F)(F)F)c(C(F)(F)F)c3c(=O)[nH]2)cc1Cl`: 2 nM; for `Cc1cc(-c2cn3nc(C(=O)NCC(C)(N)C(F)(F)F)c(C(F)(F)F)c3c(=O)[nH]2)ccc1Cl` (single isomer, unassigned): 8.75 nM; for `Cc1cc(-c2cn3nc(C(=O)N[C@H](C)c4ccc(F)cc4)c(C4CC4)c3c(=O)[nH]2)ccc1Cl`: 0.65 nM.
Still for that read-out and setting: the same measure for `Cc1ccc(-c2cn3nc(C(=O)NCC(O)C(F)F)c(C4CC4)c3c(=O)[nH]2)cc1C` (single isomer, unassigned) [6-429]: 1.09 nM; for `O=C(N[C@H](CN1CC[C@H](F)C1)c1ccc(F)cc1)c1nn2cc(-c3ccc(Cl)c(F)c3)[nH]c(=O)c2c1C1CC1`: 0.66 nM.
With `Cc1ccc(-c2cn3nc(C(=O)NC(CN4CCOCC4)c4ccc(F)cc4)c(C4CC4)c3c(=O)[nH]2)cc1C` (single isomer, unassigned) [6-443], the IC50 is 2.45 nM.
With `Cc1ccc(-c2cn3nc(C(=O)N[C@@H](c4ccc(F)cc4)[C@H](O)C(F)(F)F)c(C4CC4)c3c(=O)[nH]2)cc1F`, the half-maximal inhibitory concentration (IC50) worked out at 3.1 nM.
As for `Cc1ccc(-c2cn3nc(C(=O)NC(CO)C4CC4)c(C4CC4)c3c(=O)[nH]2)cc1Cl` (single isomer, unassigned) [6-268], the concentration for half-maximal inhibition (IC50) was found to be 8.8 nM.
Turning to `Cc1ccc(-c2cn3nc(C(=O)NC(c4ccc(F)cc4)C4(O)CC4)c(C(F)(F)F)c3c(=O)[nH]2)cc1Cl` (single isomer, unassigned) [6-175], the IC50 was found to be 4.85 nM.
`COC[C@H](NC(=O)c1nn2cc(-c3ccc(C)c(Cl)c3)[nH]c(=O)c2c1C(F)(F)F)c1ccccc1`: the IC50 came to 2.45 nM.
For `O=C(N[C@H](CN1CC(F)C1)c1ccccc1F)c1nn2cc(-c3ccc4ccccc4c3)[nH]c(=O)c2c1C(F)(F)F`, the IC50 worked out at 4.25 nM.
For the compound `Cc1ccc(-c2cn3nc(C(=O)NC4(c5ccc(F)cc5)CN(C)C4)c(C4CC4)c3c(=O)[nH]2)cc1C(F)(F)F`, the IC50 was found to be 6 nM.
As for `CC(C)(O)C(NC(=O)c1nn2cc(-c3ccc(Cl)c(F)c3)[nH]c(=O)c2c1C1CC1)c1ccc(F)c(F)c1` (single isomer, unassigned) [6-101], the IC50 was 11.2 nM.
Turning to `CC(C)(O)[C@@H](NC(=O)c1nn2cc(-c3ccc(Cl)c(Cl)c3)[nH]c(=O)c2c1C(F)(F)F)c1ccc(F)cc1`, the IC50 worked out at 3.55 nM.
For the compound `O=C(NC(CO)C(F)(F)F)c1nn2cc(-c3ccc(Cl)c(Cl)c3)[nH]c(=O)c2c1C1CC1` (single isomer, unassigned) [6-418], the IC50 is 2.18 nM.
On to `CC(CO)NC(=O)c1nn2cc(-c3ccc4c(c3)OCCO4)[nH]c(=O)c2c1C1CC1` (single isomer, unassigned) [6-468], for which the IC50 was 4.45 nM.
Still for that read-out and setting: the figure for `Cc1cc(-c2cn3nc(C(=O)N[C@@H](c4ccc(F)cc4)C(C)(C)O)cc3c(=O)[nH]2)ccc1C1CC1` is 6.35 nM.
On to `Cc1ccc(-c2cn3nc(C(=O)NC(CO)c4ccc(F)cc4)c(C4CC4)c3c(=O)[nH]2)cc1F` (single isomer, unassigned) [6-373], for which the IC50 was 2.1 nM.
Turning to `COCc1c(C(=O)NCC(O)(C(F)(F)F)C(F)(F)F)nn2cc(-c3ccc4c(c3)OCCO4)[nH]c(=O)c12`, the IC50 was 5.1 nM.
As for `Cc1cc(-c2cn3nc(C(=O)N[C@H](CN4CCOCC4)c4ccc(F)cc4)c(C(F)(F)F)c3c(=O)[nH]2)ccc1Cl`, the IC50 came to 2.05 nM.
On to `Cc1ccc(-c2cn3nc(C(=O)NC4CCN(CC(F)F)C4)c(C4CC4)c3c(=O)[nH]2)cc1C` (single isomer, unassigned), for which the IC50 turned out to be 2.85 nM.
With `CC(C)(O)[C@@H](NC(=O)c1nn2cc(-c3ccc4c(c3)OCCO4)[nH]c(=O)c2c1C(F)(F)F)c1ccc(F)cc1`, the IC50 came to 0.81 nM.
For the compound `Cc1ccc(-c2cn3nc(C(=O)NCC(O)C(F)(F)F)c(C(F)(F)F)c3c(=O)[nH]2)cc1F` (single isomer, unassigned) [6-138], the IC50 came out at 6.27 nM.
For `Cc1cc(-c2cn3nc(C(=O)N[C@H](C)C(C)(C)C)c(C(F)(F)F)c3c(=O)[nH]2)ccc1Cl`, the IC50 came to 3.37 nM.
As for `Cc1cc(-c2cn3nc(C(=O)NC(CO)C(F)(F)F)c(C4CC4)c3c(=O)[nH]2)ccc1Cl` (single isomer, unassigned) [6-307], the IC50 stood at 1.65 nM.
As for `Cc1cc(-c2cn3nc(C(=O)NCCNCC(F)F)c(C4CC4)c3c(=O)[nH]2)ccc1Cl`, the IC50 is 2.7 nM.
For `Cc1cc(-c2cn3nc(C(=O)N[C@@H](c4ccc(F)cc4)C(C)(C)O)cc3c(=O)[nH]2)ccc1Cl`, the IC50 stood at 1.21 nM.
For the compound `Cc1ccc(-c2cn3nc(C(=O)N[C@H](C)CO)c(C4CC4)c3c(=O)[nH]2)cc1Cl`, the IC50 is 2.25 nM.
Regarding `Cc1ccc(-c2cn3nc(C(=O)N[C@@H](c4ccc(F)cc4)C(C)(C)O)cc3c(=O)[nH]2)cc1Cl`, the IC50 is 1.68 nM.
Consider `Cc1ccc(-c2cn3nc(C(=O)NCC(O)C(F)(F)F)c(C(F)(F)F)c3c(=O)[nH]2)cc1F` (single isomer, unassigned) [6-140], for which the IC50 came out at 3.45 nM.
With `O=C(NCC(O)C(F)(F)F)c1nn2cc(-c3ccc(Cl)c(F)c3)[nH]c(=O)c2c1C1CC1` (single isomer, unassigned) [6-91], the IC50 was determined as 4.55 nM.
Still for that read-out and setting: the figure for `Cc1ccc(-c2cn3nc(C(=O)NC(C#N)CO)c(C4CC4)c3c(=O)[nH]2)cc1F` (stereo not shown) is 6.05 nM.

The same assay, now with this note: read-out: EP3 CHO mtCLY ANTAG IC50; CHO cells expressing human EP3 and mitochondrial Clytin; antagonist mode, sulprostone at EC50; tested form: formate.
Take `COc1ccc(C2(NC(=O)c3cc4c(=O)[nH]c(-c5ccc6c(c5)OCCO6)cn4n3)CN(C)C2)cc1`: the half-maximal inhibitory concentration (IC50) came to 9.57 nM.
On to `CN1CC(NC(=O)c2nn3cc(-c4ccc5ccccc5c4)[nH]c(=O)c3c2C#N)(c2ccc(F)cc2)C1`, for which the half-maximal inhibitory concentration (IC50) is 4.8 nM.
